In ChEMBL document CHEMBL5104202, “Structure-Uptake Relationship Studies of Oxazolidinones in Gram-Negative ESKAPE Pathogens” (J Med Chem, 2022):

Key:
Format in all cases: functional
Acinetobacter baumannii [1] = experiment: Selectivity ratio of IC50 for OM pore producing Acinetobacter baumannii to IC50 for efflux pump lacking/OM pore producing Acinetobacter baumannii
Escherichia coli [2] = experiment: Selectivity ratio of IC50 for efflux pump lacking Escherichia coli to IC50 for efflux pump lacking/OM pore producing Escherichia coli
Escherichia coli [3] = experiment: Selectivity ratio of IC50 for OM pore producing Escherichia coli to IC50 for efflux pump lacking/OM pore producing Escherichia coli
Acinetobacter baumannii [4] = experiment: Selectivity ratio of IC50 for efflux pump lacking Acinetobacter baumannii to IC50 for efflux pump lacking/OM pore producing Acinetobacter baumannii

| SMILES | Ratio IC50 (Acinetobacter baumannii [1]) | Ratio IC50 (Escherichia coli [2]) | Ratio IC50 (Escherichia coli [3]) | Ratio IC50 (Acinetobacter baumannii [4]) |
| --- | --- | --- | --- | --- |
| CC(C)c1ccc(-c2ccc(N3C[C@H](CO)OC3=O)cc2F)c(C(C)C)c1 | 10 |  |  |  |
| Cc1nn(C)c(C)c1C#Cc1ccc(N2C[C@H](CO)OC2=O)cc1F |  | 25 |  |  |
| O=C1O[C@@H](CO)CN1c1ccc(C#Cc2cc(Cl)cc(Cl)c2)c(F)c1 |  | 7 |  |  |
| O=Cc1ccc(-c2ccc(N3C[C@H](CO)OC3=O)cc2F)cc1 | 14 |  | 12 |  |
| O=C(O)c1ccc(-c2ccc(N3C[C@H](CO)OC3=O)cc2F)cc1 | 5 | 21 | > 39 |  |
| O=C1O[C@@H](CO)CN1c1ccc(-c2ccc(-c3ccncc3)cc2)c(F)c1 | > 16 |  |  | 16 |
| CNC(=O)NCC#Cc1ccc(N2C[C@H](CO)OC2=O)cc1F |  | > 10 | > 9 |  |
| O=C1O[C@@H](CO)CN1c1ccc(-c2ccc(O)cc2)c(F)c1 |  |  | 10 |  |
| O=C1O[C@@H](CO)CN1c1ccc(-c2ccc(-c3cccnc3)cc2)c(F)c1 | 10 |  |  | > 5 |
| O=C1O[C@@H](CO)CN1c1ccc(-c2ccc(F)cc2)c(F)c1 |  |  | 10 |  |
| O=C1O[C@@H](CO)CN1c1ccc(-c2ccc(C(F)(F)F)cc2)c(F)c1 | 11 |  | 10 |  |
| Cc1ccc(-c2ccc(N3C[C@H](CO)OC3=O)cc2F)cc1 | > 62 |  | 10 |  |
| COc1ccc(-c2ccc(N3C[C@H](CO)OC3=O)cc2F)cc1 | > 15 |  | 14 |  |
| O=C1O[C@@H](CO)CN1c1ccc(-c2ccccc2)c(F)c1 |  |  | 7 |  |
| Nc1ncc(-c2ccc(N3C[C@H](CO)OC3=O)cc2F)cn1 | 8 |  |  |  |
| O=C1O[C@@H](CO)CN1c1ccc(-c2ccnc(N3CCCC3)c2)c(F)c1 |  | 10 |  |  |
| C[n+]1ccc(-c2ccc(-c3ccc(N4C[C@H](CO)OC4=O)cc3F)cc2)cc1 |  |  |  | 6 |
| N/C(=N/O)c1ccc(-c2ccc(N3C[C@H](CO)OC3=O)cc2F)cc1 |  |  | 7 |  |
| O=C1O[C@@H](CO)CN1c1ccc(-c2ccc3c(c2)OCO3)c(F)c1 | > 67 |  | 8 |  |
| C[n+]1ccc2ccc(-c3ccc(N4C[C@H](CO)OC4=O)cc3F)cc2c1 |  |  |  | 5 |
